Data reported in patent US20250205244A1, “METHODS OF TREATING MIGRAINE WITH MNK INHIBITORS” (4E Therapeutics, Inc., priority 2021, published 2025).

How the values were obtained:
[1] = tested on: eIF4E phosphorylation at Serine 209 in the human embryonic kidney (HEK) 293 cell line; assay: Inhibition of eIF4E phosphorylation in HEK293 cells (phospho-specific antibody, fluorescent plate reader); conditions: read-out: HEK 293 cell IC50, eIF4E phosphorylation at Serine 209, HEK293 cells, 2 hours exposure
WT mice, dural IL-6 = assay: Dural IL-6-induced acute facial hypersensitivity and grimace in mice; conditions: female and male WT mice; 10 mg/kg oral gavage prior to dural IL-6 (0.1 ng); compared to the vehicle group

With `Cc1cc(Nc2cc(N)ncn2)c(=O)n2c1C(=O)NC21CCCC2(CC2)CC1` (single isomer, unassigned) the IC50 [1] was 25.4 nM, the IC50 ([1]; listed as Enatiomer 1 of 4ET-01-027) was 11.6 nM and the “dural IL-6 induced facial grimace measures (grimace score)” value (WT mice, dural IL-6) was “significantly attenuated”.

Read-outs that look alike come from different tables or passages of the source.
